Values of other authors in patent US8404645B2, “Stable formulations of amylin and its analogues” (Novo Nordisk AS, priority 2007, dated 2013).

Conditions: treated test animals; provoking marked hyperlactemia followed by hyperglycemia

Compound: CC[C@H](C)[C@H](NC(=O)[C@@H]1CCCN1C(=O)CNC(=O)[C@H](Cc1ccccc1)NC(=O)[C@H](CC(N)=O)NC(=O)[C@H](CC(N)=O)NC(=O)[C@H](CO)NC(=O)[C@H](CO)NC(=O)[C@H](Cc1c[nH]cn1)NC(=O)[C@@H](NC(=O)[C@H](CC(C)C)NC(=O)[C@H](Cc1ccccc1)NC(=O)[C@H](CC(N)=O)NC(=O)[C@H](C)NC(=O)[C@H](CC(C)C)NC(=O)[C@H](CCCNC(=N)N)NC(=O)[C@H](CCC(N)=O)NC(=O)[C@@H](NC(=O)[C@H](C)NC(=O)[C@@H]1CSSC[C@H](NC(=O)[C@@H](N)CCCCN)C(=O)N[C@@H](CC(N)=O)C(=O)N[C@@H]([C@@H](C)O)C(=O)N[C@@H](C)C(=O)N[C@@H]([C@@H](C)O)C(=O)N1)[C@@H](C)O)C(C)C)C(=O)N[C@@H](CC(C)C)C(=O)N1CCC[C@H]1C(=O)N1CCC[C@H]1C(=O)N[C@H](C(=O)N[C@@H](CC(N)=O)C(=O)N[C@H](C(=O)NCC(=O)N[C@@H](CO)C(=O)N[C@@H](CC(N)=O)C(=O)N[C@H](C(=O)N[C@@H](Cc1ccc(O)cc1)C(N)=O)[C@@H](C)O)C(C)C)[C@@H](C)O [Pro25 Pro28 Pro29-h-amylin]
- Amylin activity in vivo: show amylin activity in vivo
